Test results as given in patent US20050054531A1, “N-(phosphonomethyl) glycine (glyphosate) salt, a preparation process thereof, a concentrate composition and a phytotoxic formulation comprising it, and a method to combat weeds in a crop with a formulation thereto” (priority 2003, published 2005).

Assay: Physical properties of the salt (solubility, pH of solution)
Format: physicochemical

## 1H-1,2,4-triazole-3-yl-amine N-(phosphonomethyl)-glycine salt [Glyphosate triazolamine salt]
  solubility in alcohol, ketone, and aromatic solvents: insoluble, or very little soluble
  solubility in water: highly soluble in water
